In this test the test system is IL-1β release in LPS-activated human peripheral blood mononuclear cells (PBMC). Briefly: LPS-induced IL-1β release from human PBMC. The class given is cell-based. More on the design: unit not given here. The following applies: Dexamethasone control, concentration not given; LPS-stimulated PBMC. The source says: The ability of GMCY to inhibit release of pro-inflammatory cytokines (TNF-α and IL-1) in LPS-activated human peripheral blood mononuclear cells (PBMC) has been investigated.

`C[C@@H]1C[C@H]2[C@@H]3CCC4=CC(=O)C=C[C@]4(C)[C@@]3(F)[C@@H](O)C[C@]2(C)[C@@]1(O)C(=O)CO` [Dexamethasone, reference compound]: the IL-1β is 172.

The record behind these values is US20080167375A1, “TREATMENT OF CUTANEOUS NEUROGENIC INFLAMMATION” (Astion Pharma A/S, priority 2006, published 2008).
